The values below come from PubChem BioAssay AID624464 (National Center for Advancing Translational Sciences (NCATS), 2012).

Amino acid sequences for entries named in this document (tags omitted).
UniProt P14416, whole entry: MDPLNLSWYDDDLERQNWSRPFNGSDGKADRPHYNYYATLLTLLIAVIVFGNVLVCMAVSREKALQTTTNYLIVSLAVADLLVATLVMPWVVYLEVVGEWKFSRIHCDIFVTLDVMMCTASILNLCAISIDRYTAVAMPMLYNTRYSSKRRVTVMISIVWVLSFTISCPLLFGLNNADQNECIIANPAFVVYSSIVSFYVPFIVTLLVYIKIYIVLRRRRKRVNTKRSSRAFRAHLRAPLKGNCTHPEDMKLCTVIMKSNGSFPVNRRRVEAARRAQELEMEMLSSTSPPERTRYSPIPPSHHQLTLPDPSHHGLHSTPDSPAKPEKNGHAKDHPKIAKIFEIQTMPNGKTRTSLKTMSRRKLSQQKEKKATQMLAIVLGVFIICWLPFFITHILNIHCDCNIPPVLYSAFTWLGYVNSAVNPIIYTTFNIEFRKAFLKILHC

Only a part is listed here, and it is no random draw. Calls of active or inactive are those of the source. No stated cut-off is given here; in the data, active means potentiation above about 50%; inconclusive means mostly about 30% to 49%; inactive means weaker than that.

For the assay, the target named is D(2) dopamine receptor (Homo sapiens) (UniProt P14416). Put plainly: Beta-Arrestin HTS for Positive Allosteric Modulators of the Human D2 Dopamine Receptor: Potentiators. The settings on record: DiscoveRx D2 beta-arrestin cells, luminescence, 90 min; active compounds read high; 100% = 57 uM dopamine signal. The text has this:
There is great interest in identifying small molecule ligands for G-protein coupled receptors (GPCRs) as nearly 50% of all FDA-approved drugs target these important receptor proteins. […] Amongst the dopamine receptors (DARs), the D2 is arguably one of the most validated drug targets in neurology and psychiatry. For instance, all receptor-based antiparkinsonian drugs primarily work via stimulating the D2 DAR, whereas all FDA-approved antipsychotic agents are antagonists of this receptor. The D2 DAR is also therapeutically targeted in other disorders such as restless legs syndrome, tardive dyskinesia, Tourette's syndrome, and hyperprolactinemia.
To this end, a miniaturized qHTS screen was developed to be screened against the Molecular Libraries Small Molecule Repository (MLSMR). This assay seeks to identify potentiators against the D2 DAR.
NIH Molecular Libraries Probe Production Network [MLPCN]
NIH Chemical Genomics Center [NCGC]
PI Name: David Sibley, National Institutes of Neurological Disorders and Stroke
DiscoveRx D2 cells were thawed from frozen stock and seeded at 2,100 cells/ 3 uL/well media (DiscoveRx Plating Reagent 2) with MultiDrop Combi dispenser (Thermo Scientific, Logan, UT) onto white tissue culture treated 1536-well Aurora plates (Brooks Automation, Chelmsford, MA) and allowed to attach overnight at 37 deg C, 5% CO2. Next, 23 nL/well of compound solutions in DMSO were added with a pintool transfer (Kalypsis, San Diego, CA). As the positive control, 1 uL/well dopamine (EC100, 57 uM final concentration) diluted in buffer (HBSS + 10 mM HEPES + SMB + 0.1 %Tween-20) was dispensed to 1 column of each plate. EC20 (Dopamine at 50 nM final concentration) was dispensed to the rest of the plate except columns 1 &2 which were used as negative control (EC=0, buffer only), 1 uL/well as well. The cells were stimulated by compounds and dopamine for 90 minutes at 37 deg C, 5% CO2, after which 1.5 uL/well of DiscoveRx detection reagent was added with BioRAPTR FRD dispenser. The detection reagent was prepared by mixing of Galacton Star Substrate, Emerald II solution and PathHunter buffer (supplied by the assay kit) together at 1:5:19 proportion accordingly just prior to dispensing. The plates were incubated at ambient temperature for 1 hour and then the luminescent signal was read on ViewLux plate reader (PerkinElmer, Waltham, MA).
`c1ccc(-c2nn[nH]n2)c(-c2nn[nH]n2)c1`: the potentiation was inactive: -2.38%.
To `Cc1ccc(NP(=O)(Oc2cccc(C)c2)Oc2cccc(C)c2)nc1` belongs inactive: -4.27%; to `O=C(NC1CCS(=O)(=O)C1)NP(=S)(Oc1ccccc1)Oc1ccccc1` (configuration not stated), inactive: -1.83%.
The same measure for `CCNC(=S)/N=C(\N)N[N+](=O)[O-]`: inactive: -5.63%; for `COc1ccc(OP(C)(=O)Nc2ccc(SC(F)(F)F)cc2)cc1` (configuration not stated): inactive: 2.54%.
The same measure for `O=P1(N(CCCl)CCCl)OCCC2CCCCN21` (configuration not stated): inactive: -9.16%.
Turning to `CCOC(=O)c1ccc(NP(C)(=O)Oc2ccc(F)cc2)cc1` (configuration not stated), the potentiation is inactive: -8.75%.
To `O=C(OC1CN2CCC1CC2)c1ccccc1` (configuration not stated) belongs inactive: -7.29%; to `CCC(=O)N1C2C3N(C(=O)CC)C1C1N(C(=O)CC)C(C(N1C(=O)CC)N3C(=O)CC)N2C(=O)CC`, inactive: 2.74%.
The same measure for `CCN(CC)CCCOC(=O)C(O)(c1ccccc1)C1CCCCC1` (configuration not stated): inactive: -34.3%; for `COC(=O)c1cc2c(s1)N=C(c1ccccc1)N(C)P2(=O)N1CCOCC1` (configuration not stated): inactive: 16%; for `Cc1c([N+](=O)[O-])cc([N+](=O)[O-])c(Br)c1[N+](=O)[O-]`: inactive: -39.4%.
The same measure for `Cc1ccc(OP(=O)(Nc2ccccn2)Oc2ccc(C)cc2)cc1`: inactive: -10.4%; for `CC(=O)NC(SC(=S)N(CC(C)C)CC(C)C)C(Cl)(Cl)Cl` (configuration not stated): inactive: 2.69%; for `CC(NC(=O)COC(=O)C(O)(c1ccccc1)c1ccccc1)c1ccccc1` (configuration not stated): inactive: -2.81%.
For the compound `Cc1ccccc1OP(=O)(Nc1ccccn1)Oc1ccccc1C`, the potentiation was inactive: 4.21%.
As to `O=c1c2cc([N+](=O)[O-])ccc2[nH]c2c([N+](=O)[O-])cc([N+](=O)[O-])cc12`, the potentiation was inactive: 11.5%.
The same measure for `CCCCCOc1ccc(NP(C)(=O)Oc2ccc(Cl)cc2Cl)cc1` (configuration not stated): inactive: -11.9%.
With `CN(C)C(=O)Oc1noc2ccccc12`, the potentiation was inactive: -6.28%.
Take `CP(=O)(Nc1ccccc1)Oc1ccc(F)cc1` (configuration not stated): the potentiation was inactive: -18.2%.
To `O=P1(Nc2nc3ccc(Cl)cc3s2)COc2ccccc2O1` (configuration not stated) belongs inactive: -6.38%; to `CCOc1ccc(C2=NCC(CBr)S2)cc1` (configuration not stated), inactive: -4.99%; to `CC(C)(C)C(=O)NC(Sc1ccccc1)C(Cl)(Cl)Cl` (configuration not stated), inactive: -6.2%.
With `CC(C)c1ccc(OP(C)(=O)Nc2ccc(SC(F)(F)F)cc2)cc1` (configuration not stated), the potentiation is inactive: 25%.
The same measure for `CCc1cc(O)c([N+](=O)[O-])c(C)c1[N+](=O)[O-]`: inactive: -2.87%; for `CP(=O)(Nc1ccccc1F)Oc1ccccc1` (configuration not stated): inactive: -3.97%; for `O=C(OCCN1CCN(CCOCc2ccccc2)CC1)C(O)(c1ccccc1)c1ccccc1`: inactive: -24.3%.
